Our source for the SUVmax values is patent publication US20250135045A1, “FAP-ALPHA SPECIFIC TUMOR DIAGNOSTIC IMAGING AGENT” (JIAXING PHARBERS GENESIS PHARMACEUTICAL TECHNOLOGY CO., LTD., priority 2022, published 2025).

This experiment deals with lung tumor. The following applies: human, in vivo.

Turning to ^18F-FDG, the SUVmax came to 7.0.
